Test: Selectivity ratio of Ki for mu opioid receptor to kappa opioid receptor

Work on `CN(CCc1ccccc1)C(=O)[C@H]1C[C@@]23C=C[C@]1(O)[C@@H]1Oc4c(O)ccc5c4[C@@]12CCN(CC1CC1)[C@@H]3C5` yielded a Ratio Ki of 1.2.

Reference: ChEMBL document CHEMBL1165960, “Identification of the three-dimensional pharmacophore of kappa-opioid receptor agonists” (Bioorg Med Chem, 2010)
